From ChEMBL document CHEMBL1128962, “Serotoninergic 5-HT3 and 5-HT4 receptor activities of dihydrobenzofuran carboxylic acid derivatives” (Bioorg Med Chem Lett, 1996)

Protein sequences, listed by entry. Tags and fused reporters are not part of them. Lines headed by an entry give the natural chain unless they say otherwise; changes in a name come on top.
UniProt Q62758: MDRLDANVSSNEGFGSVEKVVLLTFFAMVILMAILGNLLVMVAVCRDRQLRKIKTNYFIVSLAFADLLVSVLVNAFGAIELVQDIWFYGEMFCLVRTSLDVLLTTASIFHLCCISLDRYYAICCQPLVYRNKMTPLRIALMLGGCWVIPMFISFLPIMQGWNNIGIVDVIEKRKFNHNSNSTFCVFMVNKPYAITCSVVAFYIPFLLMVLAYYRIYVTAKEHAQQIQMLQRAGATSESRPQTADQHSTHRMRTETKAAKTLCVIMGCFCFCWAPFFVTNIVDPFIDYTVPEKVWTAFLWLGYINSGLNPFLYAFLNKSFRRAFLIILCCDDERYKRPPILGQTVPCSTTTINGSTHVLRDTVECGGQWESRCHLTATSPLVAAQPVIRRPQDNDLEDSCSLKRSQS

Key:
[1] = target: T1, 5-hydroxytryptamine receptor 4 (Rattus norvegicus, UniProt Q62758); experiment: Binding affinity at 5-hydroxytryptamine 4 receptor in rat striatum by [3H]GR-113808 displacement.
[2] = target: T1, 5-hydroxytryptamine receptor 4; experiment: In vitro relaxation of carbachol pre-contracted rat oesophageal TMM.; format: functional

SMILES | Ki [1] | EC50 [2]
Nc1c(Cl)cc(C(=O)O[C@@H]2CN3CCC2CC3)c2c1CCO2 | 8.3 nM | 11.1 nM
Nc1c(Cl)cc(C(=O)O[C@H]2CN3CCC2CC3)c2c1CCO2 | 93 nM | 385 nM
